Measurements: paper PMC8210154, “Tumor-selective, antigen-independent delivery of a pH sensitive peptide-topoisomerase inhibitor conjugate suppresses tumor growth without systemic toxicity” (NAR Cancer, 2021)

Test system: HCT116 xenografts
Test: HCT116 xenografts in nude mice
Conditions: 2.3 mg/kg i.p. QDx4/wk x 3, HCT116 xenograft mice

For `CC[C@@]1(O)C(=O)OCc2c1cc1n(c2=O)Cc2c-1nc1cc(F)c(C)c3c1c2[C@@H](N)CC3` [exatecan], the “animals euthanized before completion because of severe morbidity due to drug toxicity” value was 50%.
